Measured values reported in US8497349B2, “Use of multivalent synthetic ligands of surface nucleolin for treating cancer or inflammation” (Centre National de la Recherche Scientifique (CNRS), priority 2006, dated 2013).

Assays:
[1] = test system: ICAM-1; assay: ICAM-1 expression by HUVEC cells stimulated by LPS (ELISA); format: cell-based, human; conditions: 5 μM of HB-19; LPS 100 ng/ml; 20 hours
Procedure: FIG. 21. Inhibition by HB-19 of IL-8 production and ICAM-1 expression by human umbilical vascular endothelial cells (HUVEC) stimulated by LPS. HUVEC cells at 10 000 cells/cm^2 were cultured in 96-well plates in EBM-2 medium containing 2% foetal calf serum. Cells in the absence or presence of 5 μM of HB-19 were stimulated with Escherichia coli serotype 055:B5 at 100 ng/ml. Cell cultures were incubated at 37° C. in an incubator with 5% CO2 for 20 hours and IL-8 and ICAM-1 protein levels were measured by ELISA. HUVEC cells in the presence or absence of 5 μM of HB-19 were used as the control for base levels.
HUVEC cells at a concentration of 10 000 cells/cm^2 were cultured in 96-well plates in EBM-2 medium containing 2% foetal calf serum. Cells in the absence or presence of 5 μM of HB-19 were stimulated by LPS from Escherichia coli serotype 055:B5 at 100 ng/ml. Cell cultures were incubated at 37° C. in an incubator with 5% CO2 for 20 hours. Levels of IL-8 and ICAM-1 were measured by ELISA. HUVEC cells in the absence or presence of 5 μm of HB-19 were used as a control to show the base level.

[2] = test system: TNF-α; assay: TNF-α production by human primary PBMC stimulated by LPS (ELISA); format: cell-based; conditions: for production of TNF-α in response to various LPS preparations: LPS 100 ng/ml, 20 hours
Procedure: (§1) FIG. 18. Inhibition by HB-19 of the production of TNF-α by primary human mononuclear peripheral blood cells (PBMC) stimulated by various LPS preparations. PBMCs were isolated by centrifugation on a Ficoll density gradient using whole human blood EDTA-potassium and resuspended in RPMI 1640 containing 1% human serum AB (Invitrogen). Cells at a concentration of 10^6 cell/0.5 ml, in the absence (O) or presence (1 and 5 μM) of HB-19, were stimulated with 100 ng/ml of LPS from Escherichia coli type 0111: B4 and 055:B5, and LPS from Salmonella enterica serotype Re 595. The same PBMCs were stimulated with PMA: Ionomycin (Phorbol 12-myristate 13-acetate: Ionomycin) at 20 ng/ml:1 μM. PBMC cultures were incubated at 37° C. in an incubator with 5% CO2 Levels of TNF-α protein were measured by ELISA in culture supernatants collected after 20 hours of incubation.
as §1, with “PBMCs” for “FIG. 18. Inhibition by HB-19 of the production of TNF-α by primary human mononuclear peripheral blood cells (PBMC) stimulated by various LPS preparations. PBMCs”, “absence (0)” for “absence (O)”, “type 0111:B4” for “type 0111: B4”, “12-myristate 13-acetate:Ionomycin)” for “12-myristate 13-acetate: Ionomycin)”, “5% CO2. The level” for “5% CO2 Levels”, “protein was” for “protein were”

## CCCC[C@H](NC(=O)[C@H](CCCCNC(=O)[C@H](CCCNC(=N)N)NC(=O)[C@@H]1CCCN1C[C@@H](N)CCCCN)NC(=O)[C@H](CCC(=O)O)NC(=O)[C@H](CCCCNC(=O)[C@H](CCCNC(=N)N)NC(=O)[C@@H]1CCCN1C[C@@H](N)CCCCN)NC(=O)[C@@H]1CCCN1C(=O)CNC(=O)[C@H](CCCCNC(=O)[C@H](CCCNC(=N)N)NC(=O)[C@@H]1CCCN1C[C@@H](N)CCCCN)NC(=O)[C@H](CCCCN)NC(=O)[C@H](CCCCNC(=O)[C@H](CCCNC(=N)N)NC(=O)[C@@H]1CCCN1C[C@@H](N)CCCCN)NC(=O)[C@H](CCCNC(=N)N)NC(=O)[C@@H]1CCCN1C[C@@H](N)CCCCN)C(N)=O [HB19, 5[Kpsi(CH2N)PR]-TASP]
[1]
  degree of inhibition of ICAM-1 production: around 50%
[2]; 5 μM of HB-19
  production of TNF-α in response to various LPS preparations: inhibited to a similar degree to the base level
[2]; 1 and 5 μM
  production of TNF-α in response to various LPS preparations: inhibits the production of TNF-α by PBMC in a dose-dependent manner
[2]; PMA:Ionomycin 20 ng/ml:1 μM
  production of TNF-α in response to PMA-Ionomycin: does not have an effect
[2]; freshly isolated PBMC, no stimulation
  constitutive production of TNF-α: not affected
